Assay results: patent publication US3975389A, “Caffeine derivatives” (priority 1973, dated 1976)

Test: survival / late mortality of guinea-pigs treated in the broncholitic activity test (48 hours, oral route)
Details: guinea pig, in vivo

In the case of Cn1c(=O)c2[nH]cnc2n(C)c1=O [Aminophilline, reference compound], the survival at 48 h (50 mg/kg) is reported as 84%, the survival at 48 h (75 mg/kg) is reported as 84% and the survival at 48 h (100 mg/kg) is reported as 50%. For the same molecule, the survival at 48 h (150 mg/kg) was 10%.
